The experiment concerns the target Sodium-dependent serotonin transporter (Rattus norvegicus, UniProt P31652). Description: Binding affinity to rat SERT.

Protein sequences, listed by entry. Tags and fused reporters are not part of them.
UniProt P31652, whole entry: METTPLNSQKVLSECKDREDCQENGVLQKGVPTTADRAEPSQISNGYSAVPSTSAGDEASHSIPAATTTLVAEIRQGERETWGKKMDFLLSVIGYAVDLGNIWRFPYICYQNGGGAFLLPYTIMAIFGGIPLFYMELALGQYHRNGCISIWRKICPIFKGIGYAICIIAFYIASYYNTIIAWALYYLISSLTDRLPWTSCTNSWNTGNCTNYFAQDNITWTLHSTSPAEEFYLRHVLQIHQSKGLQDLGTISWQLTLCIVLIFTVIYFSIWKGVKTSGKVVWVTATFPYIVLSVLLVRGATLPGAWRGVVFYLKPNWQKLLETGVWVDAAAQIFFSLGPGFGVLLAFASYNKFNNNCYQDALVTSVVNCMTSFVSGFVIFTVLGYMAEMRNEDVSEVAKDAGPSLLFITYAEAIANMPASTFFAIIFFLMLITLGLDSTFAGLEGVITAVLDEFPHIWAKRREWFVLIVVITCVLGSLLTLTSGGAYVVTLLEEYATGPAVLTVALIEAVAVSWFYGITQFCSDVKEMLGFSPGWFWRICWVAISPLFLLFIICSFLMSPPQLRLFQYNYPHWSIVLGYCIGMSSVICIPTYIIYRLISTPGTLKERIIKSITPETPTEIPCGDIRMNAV

This passage reports Ki results from ChEMBL document CHEMBL1140667, “Pyrrolidino-tetrahydroisoquinolines bearing pendant heterocycles as potent dual H3 antagonist and serotonin transporter inhibitors” (Bioorg Med Chem Lett, 2007).

Usually Ki stands for a dissociation constant, usually derived from enzyme kinetics or from competition with a known ligand.

On to `c1ccc([C@@H]2CN3CCC[C@@H]3c3cc(OCCCN4CCCCC4)ccc32)nc1`, for which the inhibitory constant (Ki) was found to be 3.3 nM. In other words, the single-digit nanomolar range. For `c1cc([C@@H]2CN3CCC[C@@H]3c3cc(OCCCN4CCCCC4)ccc32)ccn1` the value was 20 nM.
